Drawing on patent US20240100181A1 (AbbVie / Abbott, published 2024), this text covers EC50 for one molecule.

Experiment [1] concerns the target T1, human CD19 (human, UniProt P15391 20-556).
T1 construct: whole, on cells; also called hu-CD19; cellular CD19
T1 sequence (looked up): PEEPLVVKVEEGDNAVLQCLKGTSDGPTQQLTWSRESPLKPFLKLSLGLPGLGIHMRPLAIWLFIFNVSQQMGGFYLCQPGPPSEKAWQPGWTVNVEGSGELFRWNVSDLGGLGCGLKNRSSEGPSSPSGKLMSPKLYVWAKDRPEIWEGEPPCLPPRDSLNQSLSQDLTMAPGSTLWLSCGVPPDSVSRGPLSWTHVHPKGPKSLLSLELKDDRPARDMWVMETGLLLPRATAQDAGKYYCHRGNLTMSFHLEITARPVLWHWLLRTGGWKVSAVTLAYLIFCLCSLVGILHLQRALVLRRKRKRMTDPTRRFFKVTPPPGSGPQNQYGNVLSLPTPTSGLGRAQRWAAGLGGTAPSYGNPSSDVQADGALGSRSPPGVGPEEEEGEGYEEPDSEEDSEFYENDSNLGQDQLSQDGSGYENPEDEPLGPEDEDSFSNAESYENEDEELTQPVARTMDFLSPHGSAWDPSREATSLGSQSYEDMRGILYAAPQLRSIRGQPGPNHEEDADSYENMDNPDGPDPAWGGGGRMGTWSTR
Kind of experiment: flow cytometry on SUP-B15 (ALL) cells, endogenous CD19; average of two experiments. On the technique in general: Flow cytometry measures light scatter and fluorescence of single cells or particles in a stream.

Experiment [2] addresses T1, human CD19. Kind of experiment: flow cytometry on 293T cells engineered with full-length human CD19; average of two experiments.
Experiment [3] concerns the target T1, human CD19. Kind of experiment: flow cytometry on OCI-LY19 (DLBCL) cells, endogenous CD19; average of two experiments.
For experiment [4], the target named is T1, human CD19. Kind of experiment: flow cytometry on Raji (BL) cells, endogenous CD19; average of two experiments.
The target in experiment [5] is T1, human CD19. Kind of experiment: flow cytometry on RS4; 11 (ALL) cells, endogenous CD19; average of two experiments.

B1: ADC-1 (CD19 Phosphorylated GRM agonist ADC: CD19 mAb conjugated to the drug linker of Formula V) (other)
heavy: EVQLVESGGGLVQPGGSLRLSCAASGFTFTTYWINWVRQAPGKGLEWIGNIYPSDSYTNYNQKFKDRATLSVDKSKNTAYLQMNSLRAEDTAVYYCTREDYYGSSSYYAMDYWGQGTLVTVSSASTKGPSVFPLAPSSKSTSGGTAALGCLVKDYFPEPVTVSWNSGALTSGVHTFPAVLQSSGLYSLSSVVTVPSSSLGTQTYICNVNHKPSNTKVDKKVEPKSCDKTHTCPPCPAPELLGGPSVFLFPPKPKDTLMISRTPEVTCVVVDVSHEDPEVKFNWYVDGVEVHNAKTKPREEQYNGSTYRVVSVLTVLHQDWLNGKEYKCKVSNKALPAPIEKTISKAKGQPREPQVYTLPPSREEMTKNQVSLTCLVKGFYPSDIAVEWESNGQPENNYKTTPPVLDSDGSFFLYSKLTVDKSRWQQGNVFSCSVMHEALHNHYTQKSLSLSPGK
light: AILMTQSPSSLSASVGDRVTITCKASQDVGTAVAWYQQKPGKAPKLLIYWASTRHTGVPSRFSGSGSGTDFTLTISSLQPEDFATYYCQQYSTYPLTFGQGTKVEIKRTVAAPSVFIFPPSDEQLKSGTASVVCLLNNFYPREAKVQWKVDNALQSGNSQESVTEQDSKDSTYSLSSTLTLSKADYEKHKVYACEVTHQGLSSPVTKSFNRGEC
modifications: zero or one phosphate-GRM drug linker molecule (Formula V) attached via cysteine -S-; cysteine position not stated; afucosylated at ASN-300 (EU: ASN-297); zero, one, two or three phosphate-GRM drug linker molecules (Formula V, Ala-Ala linker) attached via cysteine -S-; cysteine positions not stated
notes: also called CD19-GRM; CD19 GRM agonist ADC
A word on the EC50: it is the concentration needed to bring the measured effect to its halfway point. Read a low EC50 as a more potent agent. For the molecule B1, the EC50 with human CD19 [1] was 0.928 nM; with human CD19 [2], 1.09 nM; in the experiment with human CD19 [3] it was 1.06 nM; in the experiment with human CD19 [4], 0.939 nM; with human CD19 [5], 0.544 nM.
